Assay results from patent US10543213B2, “Treatment of relapsed and/or refractory solid tumors and non-hodgkin's lymphomas” (Celgene Quanticel Research, Inc., priority 2016, dated 2020).

Assay: 4-week toxicity study with 4-week recovery in mice

## COc1ccc(-c2c(-c3ccc(C#N)c(F)c3)nc(N3CCC(N)CC3)n(C)c2=O)cc1F [Compound A, 4-[2-(4-amino-piperidin-1-yl)-5-(3-fluoro-4-methoxy-phenyl)-1-methyl-6-oxo-1,6-dihydro-pyrimidin-4-yl]-2-fluoro-benzonitrile]
45 mg base/kg/dose
  platelet and reticulocyte counts: Marked decreases
45 mg base/kg/dose, 4 males and 1 female, TK subgroup, as early as Day 7
  animals sacrificed in moribund condition: Five
5 and 15 mg base/kg/dose
  platelet and absolute reticulocytes: Mildly to moderately lower
15 and 45 mg base/kg/dose
  medullary space of the sternum: Minimal to marked fibrosis
  periosteal, endosteal, and trabecular lamellar bone (hyperostosis): Minimal to moderate increase
Males 15, females 25, males and females 45 mg base/kg/dose
  marginal zone lymphocytes in the spleen: Minimal to marked depletion
mice
  accumulation after multiple dosing: No accumulation
≥5 mg base/kg/dose
  red cell mass (RBC count, hemoglobin, and hematocrit): Mildly to moderately lower
≥15 mg base/kg/dose
  bone marrow of the sternum: Minimal to moderate myeloid hyperplasia
  clinical observations: Rough haircoat
